Test results published in patent US20140100156A1 (SANOFI, priority 2012, published 2014).

Protein sequences, listed by entry. Tags and fused reporters are not part of them. Residues count along the entry.
UniProt P43220, 24-463: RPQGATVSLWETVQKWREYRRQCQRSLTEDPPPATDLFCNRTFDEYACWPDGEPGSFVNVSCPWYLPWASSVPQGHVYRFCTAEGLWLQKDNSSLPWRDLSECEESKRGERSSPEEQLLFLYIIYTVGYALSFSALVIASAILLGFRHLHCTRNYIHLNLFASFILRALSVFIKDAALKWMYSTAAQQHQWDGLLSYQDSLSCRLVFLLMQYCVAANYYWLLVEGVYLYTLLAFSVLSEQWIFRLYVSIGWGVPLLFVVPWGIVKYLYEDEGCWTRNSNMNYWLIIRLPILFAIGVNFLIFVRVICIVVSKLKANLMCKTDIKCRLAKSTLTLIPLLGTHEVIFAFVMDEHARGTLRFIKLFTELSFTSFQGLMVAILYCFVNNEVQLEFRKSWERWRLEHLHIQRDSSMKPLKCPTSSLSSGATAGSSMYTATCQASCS
UniProt P47871, 26-477: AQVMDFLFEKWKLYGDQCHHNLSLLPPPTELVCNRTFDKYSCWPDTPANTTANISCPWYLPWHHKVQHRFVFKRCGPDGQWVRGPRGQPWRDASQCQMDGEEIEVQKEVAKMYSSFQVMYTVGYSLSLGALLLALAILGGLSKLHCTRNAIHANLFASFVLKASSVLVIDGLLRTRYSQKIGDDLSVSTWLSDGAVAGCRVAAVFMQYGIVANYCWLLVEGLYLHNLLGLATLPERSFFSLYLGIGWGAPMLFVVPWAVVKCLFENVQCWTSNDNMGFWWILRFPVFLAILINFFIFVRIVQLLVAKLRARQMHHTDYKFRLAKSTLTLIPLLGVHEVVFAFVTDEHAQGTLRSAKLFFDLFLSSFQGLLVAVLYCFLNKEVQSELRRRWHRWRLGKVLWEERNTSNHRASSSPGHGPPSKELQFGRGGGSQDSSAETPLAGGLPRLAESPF

Key:
[1] = target: T1, human GLP-1 receptor (Homo sapiens, UniProt P43220); test: cAMP response (HTRF) of HEK-293 cells stably expressing human GLP-1 receptor; type: cell-based; details: read-out: EC50 hGLP-1R
T1 construct: expressed in transfected cells; host or cells: HEK-293

[2] = target: T2, human glucagon receptor (Homo sapiens, UniProt P47871); test: cAMP response (HTRF) of HEK-293 cells stably expressing human glucagon receptor; type: cell-based; details: read-out: EC50 hGlucagon-R
T2 construct: expressed in transfected cells; host or cells: HEK-293

[3] = physchem; type: physicochemical
Procedure: Prior to the testing of solubility and stability of a peptide batch, its content was determined. Therefore, two parameters were investigated, its purity (HPLC-UV) and the amount of salt load of the batch (ion chromatography). Since synthesized peptides contain primarily trifluoroacetate anions, only anion chromatography was performed.
. Therefore, solutions from solid samples were prepared in different buffer systems with a concentration of 1.0 mg/mL compound based on the previously determined content. HPLC-UV was performed after 2 h of gentle agitation from the supernatant, which was obtained by 20 min of centrifugation at 4000 rpm.
This analysis also served as starting point (t0) for the stability testing.
Instrument: Agilent 1100, column: X-Bridge C18 3.5 μm 2.1×150 mm (Waters), eluent: A: H20+500 ppm TFA/B: Methanol, flow: 0.55 mL/min, gradient: 0-5 min: 10-60% B; 5-15 min: 60-99% B; detection: 214 nm.

[4] = in vivo; parameters: species or system mice; details: mouse, sc, 1 mg/kg
Procedure: Mice were dosed 1 mg/kg subcutaneously (s.c.). The mice were sacrificed and blood samples were collected after 0.25, 1, 2, 4, 8, 16 and 24 hours post application. Plasma samples were analysed after protein precipitation via liquid chromatography mass spectrometry (LC/MS). PK parameters and half-life were calculated using WinonLin Version 5.2.1 (non-compartment model).
Pharmacokinetic profiles were determined as described in Methods.

[5] = Table 8, comparison testing of position 14

| SMILES | EC50 ([1]; Table 5, cAMP, HEK-293) | EC50 [1, 5] | EC50 ([2]; Table 5, cAMP, HEK-293) | EC50 [2, 5] | solubility at 2 h ([3]; pH 4.5) | solubility at 2 h ([3]; pH 7.4) | Cmax [4] | half-life [4] |
| --- | --- | --- | --- | --- | --- | --- | --- | --- |
| CCCCCCCCCCCCCCCC(=O)N[C@@H](CCC(=O)NCCCC[C@H](NC(=O)[C@H](CCC(N)=O)NC(=O)[C@H](CCCCN)NC(=O)[C@H](CO)NC(=O)[C@H](CC(C)C)NC(=O)[C@H](CC(=O)O)NC(=O)[C@H](CO)NC(=O)[C@@H](NC(=O)[C@H](Cc1ccccc1)NC(=O)[C@@H](NC(=O)CNC(=O)[C@H](CCC(N)=O)NC(=O)[C@@H](CO)NC(=O)[C@@H](N)Cc1c[nH]cn1)[C@@H](C)O)[C@@H](C)O)C(=O)N[C@@H](CCC(=O)O)C(=O)N[C@@H](CO)C(=O)N[C@@H](CCCNC(=N)N)C(=O)N[C@@H](CCCNC(=N)N)C(=O)N[C@@H](C)C(=O)N[C@@H](CCC(N)=O)C(=O)N[C@@H](CC(=O)O)C(=O)N[C@@H](Cc1ccccc1)C(=O)N[C@H](C(=O)N[C@@H](CCC(=O)O)C(=O)N[C@@H](Cc1c[nH]c2ccccc12)C(=O)N[C@@H](CC(C)C)C(=O)N[C@@H](CCCCN)C(=O)N[C@@H](C)C(=O)NCC(=O)NCC(=O)N1CCC[C@H]1C(=O)N[C@@H](CO)C(=O)N[C@@H](CO)C(=O)NCC(=O)N[C@@H](C)C(=O)N1CCC[C@H]1C(=O)N1CCC[C@H]1C(=O)N1CCC[C@H]1C(=O)N[C@@H](CO)C(N)=O)[C@@H](C)CC)C(=O)O [compound 4] | 5 pM | 5 pM | 4 pM | 4 pM | > 815 µg/mL | > 910 µg/mL | 3590 ng/mL | 2.8 h |
| CCCCCCCCCCCCCCCCCC(=O)N[C@@H](CCC(=O)NCCCC[C@H](NC(=O)[C@H](CCC(N)=O)NC(=O)[C@H](CCCCN)NC(=O)[C@H](CO)NC(=O)[C@H](CC(C)C)NC(=O)[C@H](CC(=O)O)NC(=O)[C@H](CO)NC(=O)[C@@H](NC(=O)[C@H](Cc1ccccc1)NC(=O)[C@@H](NC(=O)CNC(=O)[C@H](CCC(N)=O)NC(=O)[C@@H](CO)NC(=O)[C@@H](N)Cc1c[nH]cn1)[C@@H](C)O)[C@@H](C)O)C(=O)N[C@@H](CC(=O)O)C(=O)N[C@@H](CO)C(=O)N[C@@H](CCCNC(=N)N)C(=O)N[C@@H](CCCNC(=N)N)C(=O)N[C@@H](C)C(=O)N[C@@H](CCC(N)=O)C(=O)N[C@@H](CC(=O)O)C(=O)N[C@@H](Cc1ccccc1)C(=O)N[C@H](C(=O)N[C@@H](CCC(=O)O)C(=O)N[C@@H](Cc1c[nH]c2ccccc12)C(=O)N[C@@H](CC(C)C)C(=O)N[C@@H](CCCCN)C(=O)N[C@@H](CC(N)=O)C(=O)NCC(=O)NCC(=O)N1CCC[C@H]1C(=O)N[C@@H](CO)C(=O)N[C@@H](CO)C(=O)NCC(=O)N[C@@H](C)C(=O)N1CCC[C@H]1C(=O)N1CCC[C@H]1C(=O)N1CCC[C@H]1C(=O)N[C@@H](CO)C(N)=O)[C@@H](C)CC)C(=O)O [compound 8] | 6.3 pM |  | 2.3 pM |  |  |  | 2680 ng/mL | 3.3 h |
| CCCCCCCCCCCCCCCC(=O)N[C@@H](CCC(=O)NCCCC[C@H](NC(=O)[C@H](CCC(N)=O)NC(=O)[C@H](CCCCN)NC(=O)[C@H](CO)NC(=O)[C@H](CC(C)C)NC(=O)[C@H](CC(=O)O)NC(=O)[C@H](CO)NC(=O)[C@@H](NC(=O)[C@H](Cc1ccccc1)NC(=O)[C@@H](NC(=O)CNC(=O)[C@H](CCC(N)=O)NC(=O)[C@@H](CO)NC(=O)[C@@H](N)Cc1c[nH]cn1)[C@@H](C)O)[C@@H](C)O)C(=O)N[C@@H](CCC(=O)O)C(=O)N[C@@H](CO)C(=O)N[C@@H](CCCCN)C(=O)N[C@@H](C)C(=O)N[C@@H](C)C(=O)N[C@@H](CCC(N)=O)C(=O)N[C@@H](CC(=O)O)C(=O)N[C@@H](Cc1ccccc1)C(=O)N[C@H](C(=O)N[C@@H](CCC(=O)O)C(=O)N[C@@H](Cc1c[nH]c2ccccc12)C(=O)N[C@@H](CC(C)C)C(=O)N[C@@H](CCCCN)C(=O)N[C@@H](C)C(=O)NCC(=O)NCC(=O)N1CCC[C@H]1C(=O)N[C@@H](CO)C(=O)N[C@@H](CO)C(=O)NCC(=O)N[C@@H](C)C(=O)N1CCC[C@H]1C(=O)N1CCC[C@H]1C(=O)N1CCC[C@H]1C(=O)N[C@@H](CO)C(N)=O)[C@@H](C)CC)C(=O)O [compound 24] | 1.9 pM | 2 pM | 9.4 pM | 9.8 pM | > 1000 µg/mL | > 1000 µg/mL | 6560 ng/mL | 3.7 h |
| CCCCCCCCCCCCCCCC(=O)N[C@@H](CCC(=O)NCCCC[C@H](NC(=O)[C@H](CCC(N)=O)NC(=O)[C@H](CCCCN)NC(=O)[C@H](CO)NC(=O)[C@H](CC(C)C)NC(=O)[C@H](CC(=O)O)NC(=O)[C@H](CO)NC(=O)[C@@H](NC(=O)[C@H](Cc1ccccc1)NC(=O)[C@@H](NC(=O)CNC(=O)[C@H](CCC(N)=O)NC(=O)[C@@H](CO)NC(=O)[C@@H](N)Cc1c[nH]cn1)[C@@H](C)O)[C@@H](C)O)C(=O)N[C@@H](CCC(=O)O)C(=O)N[C@@H](CO)C(=O)N[C@@H](CCC(N)=O)C(=O)N[C@@H](C)C(=O)N[C@@H](C)C(=O)N[C@@H](CCC(N)=O)C(=O)N[C@@H](CC(=O)O)C(=O)N[C@@H](Cc1ccccc1)C(=O)N[C@H](C(=O)N[C@@H](CCC(=O)O)C(=O)N[C@@H](Cc1c[nH]c2ccccc12)C(=O)N[C@@H](CC(C)C)C(=O)N[C@@H](CCCCN)C(=O)N[C@@H](C)C(=O)NCC(=O)NCC(=O)N1CCC[C@H]1C(=O)N[C@@H](CO)C(=O)N[C@@H](CO)C(=O)NCC(=O)N[C@@H](C)C(=O)N1CCC[C@H]1C(=O)N1CCC[C@H]1C(=O)N1CCC[C@H]1C(=O)N[C@@H](CO)C(N)=O)[C@@H](C)CC)C(=O)O [compound 35] | 1.5 pM |  | 14.2 pM |  | > 1000 µg/mL | > 1000 µg/mL | 4910 ng/mL | 3.6 h |
| CCCCCCCCCCCCCCCC(=O)N[C@@H](CCC(=O)NCCCC[C@H](NC(=O)[C@H](CCC(N)=O)NC(=O)[C@H](CCCCN)NC(=O)[C@H](CO)NC(=O)[C@H](CC(C)C)NC(=O)[C@H](CC(=O)O)NC(=O)[C@H](CO)NC(=O)[C@@H](NC(=O)[C@H](Cc1ccccc1)NC(=O)[C@@H](NC(=O)CNC(=O)[C@H](CCC(N)=O)NC(=O)C(C)(C)NC(=O)[C@@H](N)Cc1c[nH]cn1)[C@@H](C)O)[C@@H](C)O)C(=O)N[C@@H](CCC(=O)O)C(=O)N[C@@H](CO)C(=O)N[C@@H](CCC(N)=O)C(=O)N[C@@H](C)C(=O)N[C@@H](C)C(=O)N[C@@H](CCC(N)=O)C(=O)N[C@@H](CC(=O)O)C(=O)N[C@@H](Cc1ccccc1)C(=O)N[C@H](C(=O)N[C@@H](CCC(=O)O)C(=O)N[C@@H](Cc1c[nH]c2ccccc12)C(=O)N[C@@H](CC(C)C)C(=O)N[C@@H](CCCCN)C(=O)N[C@@H](C)C(=O)NCC(=O)NCC(=O)N1CCC[C@H]1C(=O)N[C@@H](CO)C(=O)N[C@@H](CO)C(=O)NCC(=O)N[C@@H](C)C(=O)N1CCC[C@H]1C(=O)N1CCC[C@H]1C(=O)N1CCC[C@H]1C(=O)N[C@@H](CO)C(N)=O)[C@@H](C)CC)C(=O)O [compound 36] | 2.7 pM |  | 45.9 pM |  | > 1000 µg/mL | > 1000 µg/mL | 5260 ng/mL | 3.8 h |
| CCCCCCCCCCCCCCCC(=O)N[C@@H](CCC(=O)NCCCC[C@H](NC(=O)[C@H](CCC(N)=O)NC(=O)[C@H](CCCCN)NC(=O)[C@H](CO)NC(=O)[C@H](CC(C)C)NC(=O)[C@H](CC(=O)O)NC(=O)[C@H](CO)NC(=O)[C@@H](NC(=O)[C@H](Cc1ccccc1)NC(=O)[C@@H](NC(=O)CNC(=O)[C@H](CCC(N)=O)NC(=O)[C@@H](CO)NC(=O)[C@@H](N)Cc1c[nH]cn1)[C@@H](C)O)[C@@H](C)O)C(=O)N[C@@H](CCC(=O)O)C(=O)N[C@@H](CO)C(=O)N[C@@H](CCCNC(=N)N)C(=O)N[C@@H](C)C(=O)N[C@@H](C)C(=O)N[C@@H](CCC(N)=O)C(=O)N[C@@H](CC(=O)O)C(=O)N[C@@H](Cc1ccccc1)C(=O)N[C@H](C(=O)N[C@@H](CCC(=O)O)C(=O)N[C@@H](Cc1c[nH]c2ccccc12)C(=O)N[C@@H](CC(C)C)C(=O)N[C@@H](CCCCN)C(=O)N[C@@H](C)C(=O)NCC(=O)NCC(=O)N1CCC[C@H]1C(=O)N[C@@H](CO)C(=O)N[C@@H](CO)C(=O)NCC(=O)N[C@@H](C)C(=O)N1CCC[C@H]1C(=O)N1CCC[C@H]1C(=O)N1CCC[C@H]1C(=O)N[C@@H](CO)C(N)=O)[C@@H](C)CC)C(=O)O [compound 44] | 2.7 pM |  | 12 pM |  | > 1000 µg/mL | > 1000 µg/mL | 2450 ng/mL | 3.4 h |

Read-outs that look alike come from different tables or passages of the source.
